Source: ChEMBL document CHEMBL3351553 (J Med Chem, 2014)

Amino acid sequences for entries named in this document (tags omitted). A change or cut given only in a name is not applied to a line headed by its entry.
UniProt P0A0K8: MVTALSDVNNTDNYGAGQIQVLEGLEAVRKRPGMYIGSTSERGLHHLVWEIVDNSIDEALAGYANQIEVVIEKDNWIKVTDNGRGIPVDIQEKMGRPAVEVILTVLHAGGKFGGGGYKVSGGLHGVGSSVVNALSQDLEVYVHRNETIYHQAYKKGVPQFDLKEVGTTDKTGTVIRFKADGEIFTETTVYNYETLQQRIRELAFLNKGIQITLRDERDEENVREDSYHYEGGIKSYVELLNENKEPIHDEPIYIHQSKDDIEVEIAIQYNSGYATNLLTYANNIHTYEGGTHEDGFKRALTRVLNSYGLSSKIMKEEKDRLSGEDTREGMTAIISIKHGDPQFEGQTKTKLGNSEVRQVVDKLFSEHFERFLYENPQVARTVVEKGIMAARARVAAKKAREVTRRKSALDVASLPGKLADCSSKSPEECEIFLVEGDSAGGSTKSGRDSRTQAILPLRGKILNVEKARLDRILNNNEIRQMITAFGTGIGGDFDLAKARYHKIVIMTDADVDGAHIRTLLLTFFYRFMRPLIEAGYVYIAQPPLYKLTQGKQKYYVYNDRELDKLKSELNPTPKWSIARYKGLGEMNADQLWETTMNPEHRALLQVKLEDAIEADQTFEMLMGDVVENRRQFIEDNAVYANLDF
UniProt P20831: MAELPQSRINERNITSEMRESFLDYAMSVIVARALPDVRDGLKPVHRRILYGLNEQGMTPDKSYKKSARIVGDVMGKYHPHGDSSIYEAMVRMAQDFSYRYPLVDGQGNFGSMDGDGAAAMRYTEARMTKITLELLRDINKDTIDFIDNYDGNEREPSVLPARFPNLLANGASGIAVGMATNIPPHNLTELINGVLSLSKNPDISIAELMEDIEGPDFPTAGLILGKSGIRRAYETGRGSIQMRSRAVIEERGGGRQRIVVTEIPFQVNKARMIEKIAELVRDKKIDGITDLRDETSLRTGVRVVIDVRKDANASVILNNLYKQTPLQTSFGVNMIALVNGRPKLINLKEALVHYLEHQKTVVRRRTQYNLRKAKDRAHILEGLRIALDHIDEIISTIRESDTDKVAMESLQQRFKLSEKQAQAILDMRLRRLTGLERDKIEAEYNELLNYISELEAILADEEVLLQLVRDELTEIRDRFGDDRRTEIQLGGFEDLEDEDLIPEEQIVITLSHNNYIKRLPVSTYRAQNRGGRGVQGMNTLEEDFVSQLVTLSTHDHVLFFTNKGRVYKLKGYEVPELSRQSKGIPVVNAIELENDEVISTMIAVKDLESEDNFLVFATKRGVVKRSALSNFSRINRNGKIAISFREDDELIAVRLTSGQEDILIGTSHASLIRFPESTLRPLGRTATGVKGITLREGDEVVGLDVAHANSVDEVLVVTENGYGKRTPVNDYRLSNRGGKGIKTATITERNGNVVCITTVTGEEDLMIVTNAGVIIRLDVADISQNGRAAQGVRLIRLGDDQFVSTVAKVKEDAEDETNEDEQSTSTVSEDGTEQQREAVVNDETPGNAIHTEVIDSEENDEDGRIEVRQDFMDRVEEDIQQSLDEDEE

Each molecule was assayed against DNA gyrase (Staphylococcus aureus, UniProt P0A0K8+P20831) (assay: Inhibition of Staphylococcus aureus DNA gyrase assessed as reduction in enzyme-catalyzed supercoiling of relaxed circular pBR322 DNA by agarose gel electrophoresis).
Assay type: protein-complex assay

SMILES	IC50
CC(C)(C)c1ccc(C(N)CCCN2CCC(C(O)(c3ccccc3)c3ccccc3)CC2)cc1 (stereo not drawn)	> 500 µM
CC(C)(C)c1ccc(C(=O)CN2CCC(C(O)(c3ccccc3)c3ccccc3)CC2)cc1	73 µM
CC(C)(C)c1ccc(C(=O)CCCN2CCC(C(O)(c3ccccc3)c3ccccc3)CC2)cc1 [TERFENADONE]	93 µM
